Experimental data taken from ChEMBL document CHEMBL5154699 (Eur J Med Chem, 2022).

Amino acid sequences for entries named in this document (tags omitted).
UniProt P97266, whole entry: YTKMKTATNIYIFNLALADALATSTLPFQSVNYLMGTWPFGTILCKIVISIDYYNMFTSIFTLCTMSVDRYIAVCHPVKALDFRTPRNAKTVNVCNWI
UniProt P33533, whole entry: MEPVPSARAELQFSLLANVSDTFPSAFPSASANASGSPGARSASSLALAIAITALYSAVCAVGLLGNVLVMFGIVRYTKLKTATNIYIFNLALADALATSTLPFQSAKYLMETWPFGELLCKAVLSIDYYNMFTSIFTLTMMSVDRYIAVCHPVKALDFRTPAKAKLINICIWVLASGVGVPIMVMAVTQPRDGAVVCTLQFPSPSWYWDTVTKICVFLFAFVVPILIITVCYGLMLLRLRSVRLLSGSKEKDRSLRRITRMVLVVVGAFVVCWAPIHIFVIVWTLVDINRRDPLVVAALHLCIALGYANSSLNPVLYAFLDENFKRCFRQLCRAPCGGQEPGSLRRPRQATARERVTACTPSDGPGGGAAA

What was measured:
[1] = molecular target: Mu-type opioid receptor (Cavia porcellus) (UniProt P97266); assay: Displacement of [3H]-DAMGO from MOR in guinea pig brain membranes at 1 uM measured by competitive radioligand receptor binding assay relative to control; conditions: Membrane
[2] = molecular target: Delta-type opioid receptor (Rattus norvegicus) (UniProt P33533); assay: Displacement of [3H]-DPDPE from DOR in rat brain membranes at 1 uM measured by competitive radioligand receptor binding assay relative to control; conditions: Membrane

Row | Compound | Activity [1] | Activity [2]
1 | CN(C)[C@@H]1CCC2CCN(C(=O)Cc3ccc(Cl)c(Cl)c3)C1C2 (mixture of isomers) | 0% | 
2 | O=C(Cc1ccc(Cl)c(Cl)c1)N1CC[C@H]2CC[C@@H](N3CCCC3)[C@@H]1C2 | 7% | 0%
3 | O=C(Cc1ccc(Cl)c(Cl)c1)N1CC[C@@H]2CC[C@H](N3CCCC3)[C@H]1C2 | 0% | 0%
